According to patent publication US20110207745A1 (priority 2009, published 2011):
Where two headings read alike, the source gives them in different places.

Tested on: Male Sprague Dawley rats
Details: rat; for Mean Escape Failures: 50 trials

Question: With `CCN(CC)C(=O)c1ccc([C@H](c2cccc(N)c2)N2CCN(Cc3ccc(F)cc3)CC2)cc1` [Compound A1, 4-{(R)-(3-aminophenyl)[4-(4-fluorobenzyl)piperazin-1-yl]methyl}-N,N-diethylbenzamide] as the compound, how does the “Mean Center Crossings” value (0.1 mg/kg by mouth twice a day) read?
Answer: 26.6

Question: What about the “Mean Escape Failures” value (0.1 mg/kg by mouth twice a day) of the same compound?
Answer: 6.1

Question: What about the “Mean Center Crossings” value (1 mg/kg by mouth twice a day) of the same compound?
Answer: 30.9

Question: And the “Mean Escape Failures” value (1 mg/kg by mouth twice a day)?
Answer: 3.1

Question: And the “Mean Center Crossings” value (10 mg/kg by mouth twice a day)?
Answer: 26.9

Question: What about the “Mean Escape Failures” value (10 mg/kg by mouth twice a day) of the same compound?
Answer: 4.9

Question: What about the “effect on escape failures in the learned helplessness test” value (indicative of potential antidepressant action) of the same compound?
Answer: decrease in escape failures

Question: With `CN(C)CCCN1c2ccccc2CCc2ccccc21` [Imipramine, reference compound] as the compound, how does the “Mean Center Crossings” value (20 mg/kg by mouth twice a day) read?
Answer: 30.2

Question: And the “Mean Escape Failures” value (20 mg/kg by mouth twice a day)?
Answer: 2.3
